{"source": "patent US20260241048A1", "about": "“PSMA-TARGETED RADIOPHARMACEUTICALS AND DNA DAMAGE RESPONSE INHIBITOR COMBINATION THERAPY” (FUSION PHARMACEUTICALS INC., priority 2023, published 2026)", "tested_on": "PC3-PSMA xenograft", "experiment": "In vivo combination study of ^225Ac-Compound I and elimusertib in PC3-PSMA tumor xenograft bearing mouse model", "conditions": "single agent elimusertib monotherapy, oral gavage twice per day, 3 days on/4 days off, four weekly cycles, 5, 20, 40 mg/kg", "procedure": "Groups of mice (n=5/group) were treated with ^225Ac-Compound I, administered as a single dose (intravenous), at a dose sub-optimal for monotherapeutic efficacy (1.23 MBq/kg or 1 μCi, based on 30 g mice). […] Tumor measurements were taken 2-3 times per week and used to calculate tumor volume. Study duration was 61 days after initial therapeutic administration.\nTumor growth was tracked over time and expressed as Relative Tumor Volume (RTV; tumor volume on day X divided by initial tumor volume on day 0) (FIGS. 4A-4C).", "data": [{"compound": "C[C@@H]1COCCN1c1cc(-c2ccnn2C)c2ccnc(-c3ccn[nH]3)c2n1", "note": "[elimusertib]", "values": [{"measurement": "Tumor growth (Relative Tumor Volume)", "result": "dose dependent efficacy"}]}]}
